Laboratory results from paper PMC7466261, “In Silico and In Vitro Analysis of Multifunctionality of Animal Food-Derived Peptides” (Foods, 2020).
Read-outs that look alike come from different tables or passages of the source.

Key:
[1] = biological target: T1, angiotensin-converting enzyme (ACE) (Oryctolagus cuniculus, UniProt P12822); conditions: read-out: ACE inhibitory IC50, cited from earlier work
[2] = biological target: T1, angiotensin-converting enzyme (ACE); assay: ACE-inhibitory activity, fluorescence assay with Abz-Gly-Phe(NO2)-Pro; conditions: read-out: ACE Inhibitory Activity (IC50-µM), symbol; highest peptide concentration analyzed 1000 µM

N=C(N)NCCC[C@H](N)C(=O)N[C@@H](Cc1ccc(O)cc1)C(=O)O
IC50 ([1]; BIOPEP-UWM): 51 µM
IC50 ([1]; database value): 54.4 µM
IC50 [2]: > 1000 µM
